## Yeast mating assay 2: variants of the scFv Ab-91

Values reported by Engelhart et al. 2022, doi:10.1038/s41597-022-01779-4 (FLAb copy).

Antigen: PDVDLGDISGINAS, a 14-residue peptide of the SARS-CoV-2 spike HR2 region.

Ab-91 is the parent antibody, in scFv form: VL, then the linker GGGGSGGGGSGGGGS, then VH. The light chain is unchanged in all variants.
VL: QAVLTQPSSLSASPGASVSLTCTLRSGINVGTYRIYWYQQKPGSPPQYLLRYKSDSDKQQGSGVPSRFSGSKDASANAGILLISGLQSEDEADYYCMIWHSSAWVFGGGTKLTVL
VH: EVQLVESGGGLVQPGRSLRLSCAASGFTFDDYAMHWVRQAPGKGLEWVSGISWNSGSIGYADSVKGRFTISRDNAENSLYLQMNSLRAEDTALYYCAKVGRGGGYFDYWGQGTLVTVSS

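The starting antibody came from a phage panning campaign against this peptide. Library AAYL51 holds single substitutions and randomly drawn double and triple substitutions in the CDRs. AlphaSeq pools MATa yeast showing the antibodies with MATalpha yeast showing the peptide. Binding brings cells together so that they mate, and sequencing counts the barcode pairs among the diploids. Each replicate has its own calibration line, from reference interactions of the BCL2 family. Mating was done three times.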

The parent's heavy chain CDRs are GFTFDDYAMH, GISWNSGSIGYADSVK, VGRGGGYFDY; each variant's own CDRs replace them letter for letter. Numbers give log10(Kd / nM), so 0 is 1 nM and 3 is 1 µM. Smaller is tighter. A pair that was not seen in that replicate is written "ND"; this usually means weak binding, but a binder can also be missed. For reference, the parent read 1.86 as the reference entry and 0.88 as a member of this library.

{"CDR-H1": "GFTFDDYAMH", "CDR-H2": "GIWKNSGSIGYADGVK", "CDR-H3": "VGRGGGYFDY", "replicates, log10 nM": "5.43 5.77 5.69", "control signals": "6 of 9 (4.95)"}
{"CDR-H1": "GFTFDTYAMH", "CDR-H2": "GISWNSGSIGYADVVK", "CDR-H3": "VNRGGGYFDY", "replicates, log10 nM": "5.54 5.53 ND", "control signals": "2 of 9 (4.24)"}
{"CDR-H1": "GFTFDDYAMH", "CDR-H2": "GISWNSGSIFYADSVK", "CDR-H3": "VGRGGYYFDY", "replicates, log10 nM": "ND ND ND", "control signals": "0 of 9"}
{"CDR-H1": "GFTFDDYADH", "CDR-H2": "GISWNSGSIGYADSVK", "CDR-H3": "VGFGGGYFDY", "replicates, log10 nM": "4.37 4.75 4.44", "control signals": "1 of 9 (3.84)"}
{"CDR-H1": "GFTFRDYAMH", "CDR-H2": "GISWNSGSIGYATWVK", "CDR-H3": "VGRGGGYFDY", "replicates, log10 nM": "0.88 0.78 0.62", "control signals": "1 of 9 (3.52)"}
{"CDR-H1": "GFTFDDYAGH", "CDR-H2": "GISWYSGSIGYADSVK", "CDR-H3": "HGRGGGYFDY", "replicates, log10 nM": "ND ND ND", "control signals": "0 of 9"}
{"CDR-H1": "GFTFDYYAMH", "CDR-H2": "GISWNWGSIGYADSMK", "CDR-H3": "VGRGGGYFDY", "replicates, log10 nM": "ND ND ND", "control signals": "0 of 9"}
{"CDR-H1": "GFTFDDYAMH", "CDR-H2": "GISWNSGSIGYADISK", "CDR-H3": "VGREGGYFDY", "replicates, log10 nM": "ND ND ND", "control signals": "0 of 9"}
{"CDR-H1": "GFTFEDYAMH", "CDR-H2": "GISWFSGSIGYADSQK", "CDR-H3": "VGRGGGYFDY", "replicates, log10 nM": "ND 4.09 ND", "control signals": "1 of 9 (3.46)"}
{"CDR-H1": "GNTFGDYAMH", "CDR-H2": "GISWNSGWIGYADSVK", "CDR-H3": "VGRGGGYFDY", "replicates, log10 nM": "4.93 ND 5.05", "control signals": "6 of 9 (4.69)"}
{"CDR-H1": "GFTFDDYAMH", "CDR-H2": "GLSENSGSIGYADSVK", "CDR-H3": "VGRGGGCFDY", "replicates, log10 nM": "ND ND 3.46", "control signals": "0 of 9"}
{"CDR-H1": "GFTFRDYAMH", "CDR-H2": "GISWNIGSIGYADSVK", "CDR-H3": "VGRGRGYFDY", "replicates, log10 nM": "ND ND ND", "control signals": "0 of 9"}
{"CDR-H1": "GFTFDDYAMH", "CDR-H2": "GISDNSGSDGYADSVK", "CDR-H3": "IGRGGGYFDY", "replicates, log10 nM": "ND ND ND", "control signals": "1 of 9 (4.32)"}
{"CDR-H1": "GFTFDDYAMH", "CDR-H2": "GISWISTSIGYADSVL", "CDR-H3": "VGRGGGYFDY", "replicates, log10 nM": "3.85 4.68 5.17", "control signals": "6 of 9 (4.28)"}
{"CDR-H1": "GFTFDDYAMH", "CDR-H2": "GISWPSGSIGYRDGVK", "CDR-H3": "VGRGGGYFDY", "replicates, log10 nM": "4.41 ND ND", "control signals": "5 of 9 (3.63)"}
{"CDR-H1": "GFTFDDYAMH", "CDR-H2": "GFSWNSGKIGYADSVA", "CDR-H3": "VGRGGGYFDY", "replicates, log10 nM": "4.58 ND ND", "control signals": "2 of 9 (4.49)"}
{"CDR-H1": "GFTTDDTAMH", "CDR-H2": "GISWNSGSIGYADSVK", "CDR-H3": "VGMGGGYFDY", "replicates, log10 nM": "4.95 6.30 5.17", "control signals": "4 of 9 (4.73)"}
{"CDR-H1": "GFTFDDYAMY", "CDR-H2": "GISWNSGSIGYADSKK", "CDR-H3": "VGRGGGYFIY", "replicates, log10 nM": "ND 4.63 ND", "control signals": "1 of 9 (3.31)"}
{"CDR-H1": "GFTFDDYAMH", "CDR-H2": "GISWNSGSIGYADSAK", "CDR-H3": "VGRMGDYFDY", "replicates, log10 nM": "ND ND ND", "control signals": "0 of 9"}
{"CDR-H1": "GFTGDDYLKH", "CDR-H2": "GISWNSGSIGYADSVK", "CDR-H3": "VGRGGGYFDY", "replicates, log10 nM": "4.91 ND ND", "control signals": "4 of 9 (4.87)"}
{"CDR-H1": "GFTFDDYAMH", "CDR-H2": "GISWNSGLIGYAHSDK", "CDR-H3": "VGRGGGYFDY", "replicates, log10 nM": "ND ND ND", "control signals": "1 of 9 (4.12)"}
{"CDR-H1": "GETFDDYAMH", "CDR-H2": "GISANSGSIGYADSVK", "CDR-H3": "VGRGGGYFDY", "replicates, log10 nM": "2.58 2.80 2.32", "control signals": "7 of 9 (4.91)"}
{"CDR-H1": "GFTFDTYAMV", "CDR-H2": "GISWNSGSIGYADSVK", "CDR-H3": "VGRGQGYFDY", "replicates, log10 nM": "3.71 5.10 5.59", "control signals": "8 of 9 (5.01)"}
{"CDR-H1": "GFTFDDYAMH", "CDR-H2": "GISWNSVSIGYADSSK", "CDR-H3": "VGRGGGYFDY", "replicates, log10 nM": "ND ND ND", "control signals": "0 of 9"}
{"CDR-H1": "GFTFDRYAMH", "CDR-H2": "GISWNSGSNGTADSVK", "CDR-H3": "VGRGGGYFDY", "replicates, log10 nM": "3.81 4.37 4.83", "control signals": "0 of 9"}
{"CDR-H1": "GFTFDDYAEH", "CDR-H2": "GITWNSGSIGYADSVK", "CDR-H3": "VRRGGGYFDY", "replicates, log10 nM": "4.76 4.96 4.83", "control signals": "3 of 9 (4.97)"}
{"CDR-H1": "GFTFKDYAMH", "CDR-H2": "GISWNSGSIGYWDSVK", "CDR-H3": "VGRGGGHFDY", "replicates, log10 nM": "4.04 ND 3.91", "control signals": "2 of 9 (4.97)"}
{"CDR-H1": "GFTFDDYAME", "CDR-H2": "GISWNSGSIGYADSVK", "CDR-H3": "VGRGGGYFDY", "replicates, log10 nM": "ND ND ND", "control signals": "1 of 9 (3.88)"}
{"CDR-H1": "GFTFDDYAMH", "CDR-H2": "GISWNSGSIGYADSVK", "CDR-H3": "VGRNGGYFDI", "replicates, log10 nM": "2.60 ND 3.00", "control signals": "0 of 9"}
{"CDR-H1": "GFTWDDYAMH", "CDR-H2": "GIFWNSGSIYYADSVK", "CDR-H3": "VGRGGGYFDY", "replicates, log10 nM": "ND ND ND", "control signals": "4 of 9 (4.53)"}

Excerpt, the final 3 entries:

CDR-H1,CDR-H2,CDR-H3,"replicates, log10 nM",control signals
GFTFDDYAME,GISWNSGSIGYADSVK,VGRGGGYFDY,ND ND ND,1 of 9 (3.88)
GFTFDDYAMH,GISWNSGSIGYADSVK,VGRNGGYFDI,2.60 ND 3.00,0 of 9
GFTWDDYAMH,GIFWNSGSIYYADSVK,VGRGGGYFDY,ND ND ND,4 of 9 (4.53)

Empty control strains, which show no peptide, gave a signal in 21% of pairings with library AAYL51; the median was 4.54 and 95% of these signals were weaker than 3.26. No background was subtracted. The control count says in how many pairings with the empty strains this scFv gave a signal, with their mean in brackets.